Measured values published in patent publication US20260062420A1, “NOVEL DPP1 INHIBITORS AND USES THEREOF” (Insmed Incorporated, priority 2022, published 2026).

Amino acid sequences for entries named in this document (tags omitted). Residues count along the entry.
UniProt P53634, 395-463: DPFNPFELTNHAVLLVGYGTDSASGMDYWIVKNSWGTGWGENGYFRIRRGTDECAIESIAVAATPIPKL
UniProt P53634, 25-134: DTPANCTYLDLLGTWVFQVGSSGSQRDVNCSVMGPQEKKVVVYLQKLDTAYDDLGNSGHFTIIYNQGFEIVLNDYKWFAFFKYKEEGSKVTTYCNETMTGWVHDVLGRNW
UniProt P53634, 231-394: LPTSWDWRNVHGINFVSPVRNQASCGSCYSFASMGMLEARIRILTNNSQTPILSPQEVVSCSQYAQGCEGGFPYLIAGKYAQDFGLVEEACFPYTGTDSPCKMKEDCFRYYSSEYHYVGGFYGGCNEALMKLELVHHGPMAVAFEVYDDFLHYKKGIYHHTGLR

Assays:
[1] = target: Recombinant human DPP1 enzyme (Homo sapiens (Human), UniProt P53634); test: Human DPP1 Enzyme IC50 Assay; format: biochemical; conditions: Table 16
Description: Recombinant human DPP1 enzyme (R&D Systems; Minneapolis, MN) was first proteolytically processed into its mature form using recombinant human cathepsin L (R&D Systems) in a buffer consisting of 20 mM citric acid pH 4.5, 150 mM NaCl, 1 mM EDTA and 10 mM DTT. Test articles were applied to activated human DPP1 enzyme in Assay Buffer (25 mM MES pH 6.0, 50 mM NaCl, 5 mM DTT) in a total reaction volume of 125 μL. 25 μL of compound in Assay Buffer plus 5% DMSO was first added to 50 μL of activated human DPP1 enzyme at a concentration of 1 ng/μL and allowed to pre-incubate for 10 minutes at 37° C. after which 50 μL of 1000 μM H-Gly-Arg-AMC substrate (Bachem; St. Torrance, CA) was added, giving final substrate concentration of 400 μM and a final DMSO concentration of 1%. Substrate cleavage was measured for 90 minutes at 37° C., with fluorescence at Excitation/Emission 350/450 nm measured every 5 minutes. DPP1 concentration was interpolated based on its activity relative to a standard curve of activated human recombinant DPP1 enzyme. IC50 values for each compound were calculated via the XLFit (IDBS Version 5.3.1.3) Add-On to Microsoft Excel using the four parameter fit equation y={A+[(B−A)]/[1+((C/x)^D)]}, which appears as equation number 205 (4 Parameter Logistic Model or Sigmoidal Dose-Response Model) in XLFit. Default constraints were used for each Parameter.

DPP1 in HL-60 cells = DPP1 in HL-60 cells (Homo sapiens (Human), UniProt P53634); test: DPP1 Cell IC50 Assay (HL-60 cells, H-Gly-Phe-AFC substrate); format: cell-based; conditions: Table 16
Description: HL-60 cells (ATCC; Manassas, VA) were maintained in RPMI-1640 supplemented with 20% heat-inactivated FBS and 1× Antibiotic Antimycotic (Cytiva; Marlborough, MA). Media was changed every three to four days and cells were not allowed to exceed 1×10^6 cells per mL. Prior to assay, cells were collected by centrifugation at 500 rcf for 3 minutes, resuspended in PBS and counted. Cells were diluted in PBS to a concentration of 5×10^5 live cells per mL and transferred to black 96-well plates for assay, 60 μL per well. Test articles were diluted in PBS plus 0.5% DMSO, and 20 μL was added to each assay well. […] Plates were returned to the incubator with shaking at 100 rpm for 30 minutes, after which fluorescence was measured at Excitation/Emission 400/505 nm. % Inhibition was calculated from RFU values compared to control cell wells that received only PBS plus 0.5% DMSO. IC50 values for each compound were calculated via the XLFit (IDBS Version 5.3.1.3) Add-On to Microsoft Excel using the four parameter fit equation y=(A+((B−A)/(1+((C/x)^D)))), which appears as equation number 205 (4 Parameter Logistic Model or Sigmoidal Dose-Response Model) in XLFit.

Row | SMILES | IC50 [1] [nM] | pIC50 (DPP1 in HL-60 cells)
1 | Cn1c(=O)oc2ccc(-c3ccc(C[C@@H](C#N)NC(=O)[C@@H]4CNCCCO4)c(F)c3)cc21 | 6.6 | 8.89
2 | [2H]C([2H])([2H])n1c(=O)oc2ccc(-c3ccc(C[C@@H](C#N)NC(=O)[C@@H]4CNCCCO4)c(F)c3)cc21 | 6 | 8.92

pIC50: −log10 of the molar value.
